Assay results taken from US10287286B2, “Compounds” (Takeda Pharmaceutical Company Limited, priority 2015, dated 2019).

Chains of the proteins cited; added tags and fusions are not shown.
UniProt Q96KS0, whole entry: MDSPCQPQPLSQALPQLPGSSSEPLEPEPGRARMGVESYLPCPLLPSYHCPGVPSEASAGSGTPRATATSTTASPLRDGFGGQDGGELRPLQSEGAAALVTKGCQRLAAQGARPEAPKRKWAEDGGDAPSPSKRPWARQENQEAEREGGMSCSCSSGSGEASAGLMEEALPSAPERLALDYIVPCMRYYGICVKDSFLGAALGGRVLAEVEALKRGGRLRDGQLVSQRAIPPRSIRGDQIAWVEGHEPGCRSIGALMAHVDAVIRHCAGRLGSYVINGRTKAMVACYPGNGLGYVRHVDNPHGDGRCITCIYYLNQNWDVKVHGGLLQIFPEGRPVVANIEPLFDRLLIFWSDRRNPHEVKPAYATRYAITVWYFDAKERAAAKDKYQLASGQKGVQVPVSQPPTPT

Each compound was assayed against PHD1 enzyme (residues 1-407) (Homo sapiens (Human), UniProt Q96KS0) (assay: PHD1 Enzyme Assay (UPLC-MS detection of hydroxylated peptide product)). Details: 20 nM, 60 min pre-incubation at room temperature.
Format: biochemical

IC50 [nM] | SMILES
79 | N#Cc1ccc(-c2cc(NC(=O)OC3CCOC3)cc3ncnn23)cc1F (stereo not drawn) [Example 200, oxolan-3-yl N-[5-(4-cyano-3-fluorophenyl)-[1,2,4]triazolo [1,5-a]pyridin-7-yl]carbamate]
1120 | N#Cc1ccc(-c2ccnc3ncnn23)cc1F [Example 201, 2-fluoro-4-{[1,2,4]triazolo[1,5-a]pyrimidin-7-yl}benzonitrile]
1110 | N#Cc1ccc(-c2ccnc3ncnn23)c(F)c1 [Example 203, 3-fluoro-4-{[1,2,4]triazolo[1,5-a]pyrimidin-7-yl}benzonitrile]
468 | Cc1cc(C#N)ccc1-c1ccnc2ncnn12 [Example 204, 3-methyl-4-{[1,2,4]triazolo[1,5-a]pyrimidin-7-yl}benzonitrile]
970 | N#Cc1ccc(-c2ccnc3ncnn23)c(Cl)c1 [Example 205, 3-chloro-4-{[1,2,4]triazolo[1,5-a]pyrimidin-7-yl}benzonitrile]
3620 | N#Cc1ncc(-c2ccnc3ncnn23)cc1F [Example 206, 3-fluoro-5-{[1,2,4]triazolo[1,5-a]pyrimidin-7-yl}pyridine-2-carbonitrile]
2660 | N#Cc1ccc(-c2ccnc3ncnn23)c(F)c1F [Example 207, 2,3-difluoro-4-{[1,2,4]triazolo[1,5-a]pyrimidin-7-yl}benzonitrile]
2530 | Cc1cc(C#N)c(F)cc1-c1ccnc2ncnn12 [Example 208, 2-fluoro-5-methyl-4-{[1,2,4]triazolo[1,5-a]pyrimidin-7-yl}benzonitrile]
36 | N#Cc1ccc(-c2cc(N)cc3ncnn23)c(F)c1 [Example 210, 4-{7-Amino-[1,2,4]triazolo[1,5-a]pyridin-5-yl}-3-fluorobenzonitrile]
25 | Cc1nc(C#N)nc(C)c1-c1cccc2ncnn12 [Example 211, 4,6-Dimethyl-5-{[1,2,4]triazolo[1,5-a]pyridin-5-yl}pyrimidine-2-carbonitrile]
79 | Cc1nc(C#N)ccc1-c1cc(N)cc2ncnn12 [Example 212, 5-{7-Amino-[1,2,4]triazolo[1,5-a]pyridin-5-yl}-6-methylpyridine-2-carbonitrile]
7140 | COc1cc(-c2cccc3ncnn23)ccc1Cl [Example 213, 5-(4-Chloro-3-methoxyphenyl)-[1,2,4]triazolo[1,5-a]pyridine]
632 | N#Cc1ccc(-c2c(F)ccc3ncnn23)cc1F [Example 214, 2-Fluoro-4-{6-fluoro-[1,2,4]triazolo[1,5-a]pyridin-5-yl}benzonitrile]
953 | Cc1cc(C#N)ccc1-c1c(F)ccc2ncnn12 [Example 215, 4-{6-Fluoro-[1,2,4]triazolo[1,5-a]pyridin-5-yl}-3-methylbenzonitrile]

Continued, compound first:

SMILES | IC50 [nM]
N#Cc1ccc(-c2cc(NC(=O)CC3CC3)cc3ncnn23)cc1F [Example 169, N-[5-(4-cyano-3-fluorophenyl)-[1,2,4]triazolo[1,5-a]pyridin-5-yl]-2-cyclopropylacetamide] | 49
COC(C)(C)C(=O)Nc1cc(-c2ccc(C#N)c(F)c2)n2ncnc2c1 [Example 170, N-[5-(4-cyano-3-fluorophenyl)-[1,2,4]triazolo[1,5-a]pyridin-7-yl)-2-methoxy-2-methylpropanamide] | 3020
N#Cc1ccc(-c2cc(NC(=O)C3(C#N)CC3)cc3ncnn23)cc1F [Example 171, 1-cyano-N-[5-(4-cyano-3-fluorophenyl)-[1,2,4]triazolo[1,5-a]pyridin-7-yl]cyclopropane-1-carboxamide] | 58
N#Cc1ccc(-c2cc(NC(=O)C3CC(F)C3)cc3ncnn23)cc1F (stereo not drawn) [Example 172, N-[5-(4-cyano-3-fluorophenyl)-[1,2,4]triazolo[1,5-a]pyridin-7-yl]-3-fluorocyclobutane-1-carboxamide] | 220
N#Cc1ccc(-c2cc(NC(=O)CC3COC3)cc3ncnn23)cc1F [Example 173, N-[5-(4-cyano-3-fluorophenyl)-[1,2,4]triazolo[1,5-a]pyridin-7-yl]-2-(oxetan-3-yl)acetamide] | 63
N#Cc1ccc(-c2cc(NC(=O)C3CC3)cc3ncnn23)cc1F [Example 174, N-[5-(4-cyano-3-fluorophenyl)-[1,2,4]triazolo[1,5-a]pyridin-7-yl]cyclopropanecarboxamide] | 34
Cc1cc(C#N)ccc1-c1cc(NC(=O)CC(F)(F)F)cc2ncnn12 [Example 175, N-[5-(4-cyano-2-methylphenyl)-[1,2,4]triazolo[1,5-a]pyridin-7-yl]-3,3,3-trifluoropropanamide] | 143
N#Cc1ccc(-c2cc(SCc3ccccc3)cc3ncnn23)cc1 [Example 176, 4-[7-(Benzylsulfanyl)-[1,2,4]triazolo[1,5-a]pyridin-5-yl]benzonitrile] | 40
N#Cc1ccc(-c2cc(S(=O)(=O)NCC3CC3)cc3ncnn23)cc1 [Example 177, 5-(4-Cyanophenyl)-N-(cyclopropylmethyl)-[1,2,4]triazolo[1,5-a]pyridine-7-sulfonamide] | 6900
CN(C)CCNS(=O)(=O)c1cc(-c2ccc(C#N)cc2)n2ncnc2c1 [Example 178, 5-(4-Cyanophenyl)-N-[2-(dimethylamino)ethyl]-[1,2,4]triazolo[1,5-a]pyridine-7-sulfonamide] | 4000
N#Cc1ccc(-c2cc(NC(=O)CN3CCC3)cc3ncnn23)cc1 [Example 180, 2-(Azetidin-1-yl)-N-[5-(4-cyanophenyl)-[1,2,4]triazolo[1,5-a]pyridin-7-yl]acetamide] | 79
N#Cc1ccc(-c2c(F)c(N)cc3ncnn23)cc1 [Example 181, 4-{7-Amino-6-fluoro-[1,2,4]triazolo[1,5-a]pyridin-5-yl}benzonitrile] | 325
C#Cc1ccc(-c2cccc3ncnn23)cc1 [Example 182, 5-(4-Ethynylphenyl)-[1,2,4]triazolo[1,5-a]pyridine] | 5400
CC(C)NCc1cc(-c2ccc(C#N)cc2)n2ncnc2c1 [Example 183, 4-(7-{[(propan-2-yl)amino]methyl}-[1,2,4]triazolo[1,5-a]pyridin-5-yl)benzonitrile] | 1500
N#Cc1ccc(-c2cc(CNCC(F)(F)F)cc3ncnn23)cc1 [Example 184, 4-(7-{[(2,2,2-trifluoroethyl)amino]methyl}-[1,2,4]triazolo[1,5-a]pyridin-5-yl)benzonitrile] | 870
N#Cc1ccc(-c2cc(CNC3COC3)cc3ncnn23)cc1 [Example 185, 4-(7-{[(oxetan-3-yl)amino]methyl}-[1,2,4]triazolo[1,5-a]pyridin-5-yl)benzonitrile] | 3790

SMILES | IC50 [nM]
N#Cc1ccc(-c2cc(CNCC3COC3)cc3ncnn23)cc1 [Example 186, 4-(7-{[(oxetan-3-ylmethyl)amino]methyl}-[1,2,4]triazolo[1,5-a]pyridin-5-yl)benzonitrile] | 1400
N#Cc1ccc(-c2cc(CNCC(F)F)cc3ncnn23)cc1 [Example 187, 4-(7-{[(2,2-difluoroethyl)amino]methyl}-[1,2,4]triazolo[1,5-a]pyridin-5-yl)benzonitrile] | 1400
N#Cc1ccc(-c2cc(CNCc3cccc(Cl)c3)cc3ncnn23)cc1 [Example 188, 4-[7-({[(3-chlorophenyl)methyl]amino}methyl)-[1,2,4]triazolo[1,5-c]pyridin-5-yl]benzonitrile] | 800
N#Cc1ccc(-c2cc(CNCC3CC3)cc3ncnn23)cc1 [Example 189, 4-(7-{[(cyclopropylmethyl)amino]methyl}-[1,2,4]triazolo[1,5-a]pyridin-5-yl)benzonitrile] | 1300
COc1cccc(CNCc2cc(-c3ccc(C#N)cc3)n3ncnc3c2)c1 [Example 190, 4-[7-({[(3-methoxyphenyl)methyl]amino}methyl)-[1,2,4]triazolo[1,5-a]pyridin-5-yl]benzonitrile] | 1700
COC1CN(Cc2cc(-c3ccc(C#N)cc3)n3ncnc3c2)C1 [Example 191, 4-{7-[(3-methoxyazetidin-1-yl)methyl]-[1,2,4]triazolo[1,5-a]pyridin-5-yl}benzonitrile] | 2900
N#Cc1ccc(-c2cc(CNC3CCOC3)cc3ncnn23)cc1 (stereo not drawn) [Example 192, 4-(7-{[(oxolan-3-yl)amino]methyl}-[1,2,4]triazolo[1,5-a]pyridin-5-yl)benzonitrile] | 1300
N#Cc1ccc(-c2cc(CNCC3CCOC3)cc3ncnn23)cc1 (stereo not drawn) [Example 193, 4-(7-{[(oxolan-3-ylmethyl)amino]methyl}-[1,2,4]triazolo[1,5-a]pyridin-5-yl)benzonitrile] | 4800
N#Cc1ccc(-c2cc(CNC3CC3)cc3ncnn23)cc1 [Example 194, 4-{7-[(cyclopropylamino)methyl]-[1,2,4]triazolo[1,5-a]pyridin-5-yl}benzonitrile] | 2300
N#Cc1ccc(-c2cc(NC(=O)OCC3CC3)cc3ncnn23)cc1F [Example 195, cyclopropylmethyl N-[5-(4-cyano-3-fluorophenyl)-[1,2,4]triazolo[1,5-a]pyridin-7-yl]carbamate] | 14
COCCOC(=O)Nc1cc(-c2ccc(C#N)c(F)c2)n2ncnc2c1 [Example 196, 2-methoxyethyl N-[5-(4-cyano-3-fluorophenyl)-[1,2,4]triazolo[1,5-a]pyridin-7-yl]carbamate] | 190
CN1CCC(OC(=O)Nc2cc(-c3ccc(C#N)c(F)c3)n3ncnc3c2)CC1 [Example 197, 1-methylpiperidin-4-yl N-[5-(4-cyano-3-fluorophenyl)-[1,2,4]triazolo[1,5-a]pyridin-7-yl]carbamate] | 53
CN(C)CCCOC(=O)Nc1cc(-c2ccc(C#N)c(F)c2)n2ncnc2c1 [Example 198, 3-(dimethylamino)propyl N-[5-(4-cyano-3-fluorophenyl)-[1,2,4]triazolo[1,5-a]pyridin-7-yl]carbamate] | 109
CN(C)CCOC(=O)Nc1cc(-c2ccc(C#N)c(F)c2)n2ncnc2c1 [Example 199, 2-(dimethylamino)ethyl N-[5-(4-cyano-3-fluorophenyl)-[1,2,4]triazolo[1,5-a]pyridin-7-yl]carbamate] | 111
N#Cc1c(F)cc(-c2ccnc3ncnn23)cc1F [Example 202, 2,6-difluoro-4-{[1,2,4]triazolo[1,5-a]pyrimidin-7-yl}benzonitrile] | 4480
